Reference: US7642270B2, “5-oxo-5,8-dihydro-pyrido-pyrimidine as inhibitors of c-fms kinase” (Janssen Pharmaceutica N.V., priority 2005, dated 2010)

Chains of the proteins cited; added tags and fusions are not shown. Residues count along the entry.
UniProt P07333, 20-972 limits assumed: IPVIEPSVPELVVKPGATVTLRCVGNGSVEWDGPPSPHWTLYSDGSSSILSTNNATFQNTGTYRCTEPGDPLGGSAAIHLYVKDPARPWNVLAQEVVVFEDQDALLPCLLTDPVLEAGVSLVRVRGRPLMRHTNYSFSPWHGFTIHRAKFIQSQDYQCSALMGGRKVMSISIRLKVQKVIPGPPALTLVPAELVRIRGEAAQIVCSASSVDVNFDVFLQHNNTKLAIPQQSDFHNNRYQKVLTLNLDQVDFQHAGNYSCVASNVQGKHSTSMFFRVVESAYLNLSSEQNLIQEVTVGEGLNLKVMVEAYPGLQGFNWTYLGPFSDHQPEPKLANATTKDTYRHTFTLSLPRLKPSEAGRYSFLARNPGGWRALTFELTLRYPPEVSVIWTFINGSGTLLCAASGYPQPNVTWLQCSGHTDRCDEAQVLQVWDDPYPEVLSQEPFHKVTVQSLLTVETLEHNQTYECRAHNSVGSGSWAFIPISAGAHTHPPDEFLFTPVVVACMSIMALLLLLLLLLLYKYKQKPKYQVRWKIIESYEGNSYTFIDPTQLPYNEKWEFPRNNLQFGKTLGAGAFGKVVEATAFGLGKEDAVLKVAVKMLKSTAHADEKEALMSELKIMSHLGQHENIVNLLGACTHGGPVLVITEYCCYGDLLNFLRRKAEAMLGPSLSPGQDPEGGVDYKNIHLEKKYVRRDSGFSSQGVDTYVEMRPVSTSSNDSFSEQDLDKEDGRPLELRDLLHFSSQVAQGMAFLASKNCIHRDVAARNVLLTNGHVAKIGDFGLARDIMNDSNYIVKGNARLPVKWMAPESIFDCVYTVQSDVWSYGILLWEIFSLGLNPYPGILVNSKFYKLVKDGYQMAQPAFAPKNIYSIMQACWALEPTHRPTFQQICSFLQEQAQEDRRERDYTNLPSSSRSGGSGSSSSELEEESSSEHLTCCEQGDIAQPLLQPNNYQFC

Molecular target: c-fms (Homo sapiens, UniProt P07333)
Assay: c-fms autophosphorylation, fluorescence polarization competition immunoassay
Format: biochemical
Conditions: read-out: c-fms Autophosphorylation IC50; 10 nM c-fms, 1 mM ATP, 5 mM MgCl2, 45 min room temperature; averages of three independent measurements

IC50 [µM]	Structure (SMILES)
1.4	NC(=O)c1cn(-c2ccc3c(c2)CCC3)c2nc(Nc3cccc(CO)c3)ncc2c1=O
> 10	NC(=O)c1cn(-c2ccc3c(c2)CCC3)c2nc(Nc3ccc(-n4cccn4)cc3)ncc2c1=O
